Measurements taken from US20260001886A1, “ENPP1 INHIBITORS I” (RE Ventures I, LLC, priority 2024, published 2026).

Amino acid sequences for entries named in this document (tags omitted). A change or cut given only in a name is not applied to a line headed by its entry.
UniProt P22413: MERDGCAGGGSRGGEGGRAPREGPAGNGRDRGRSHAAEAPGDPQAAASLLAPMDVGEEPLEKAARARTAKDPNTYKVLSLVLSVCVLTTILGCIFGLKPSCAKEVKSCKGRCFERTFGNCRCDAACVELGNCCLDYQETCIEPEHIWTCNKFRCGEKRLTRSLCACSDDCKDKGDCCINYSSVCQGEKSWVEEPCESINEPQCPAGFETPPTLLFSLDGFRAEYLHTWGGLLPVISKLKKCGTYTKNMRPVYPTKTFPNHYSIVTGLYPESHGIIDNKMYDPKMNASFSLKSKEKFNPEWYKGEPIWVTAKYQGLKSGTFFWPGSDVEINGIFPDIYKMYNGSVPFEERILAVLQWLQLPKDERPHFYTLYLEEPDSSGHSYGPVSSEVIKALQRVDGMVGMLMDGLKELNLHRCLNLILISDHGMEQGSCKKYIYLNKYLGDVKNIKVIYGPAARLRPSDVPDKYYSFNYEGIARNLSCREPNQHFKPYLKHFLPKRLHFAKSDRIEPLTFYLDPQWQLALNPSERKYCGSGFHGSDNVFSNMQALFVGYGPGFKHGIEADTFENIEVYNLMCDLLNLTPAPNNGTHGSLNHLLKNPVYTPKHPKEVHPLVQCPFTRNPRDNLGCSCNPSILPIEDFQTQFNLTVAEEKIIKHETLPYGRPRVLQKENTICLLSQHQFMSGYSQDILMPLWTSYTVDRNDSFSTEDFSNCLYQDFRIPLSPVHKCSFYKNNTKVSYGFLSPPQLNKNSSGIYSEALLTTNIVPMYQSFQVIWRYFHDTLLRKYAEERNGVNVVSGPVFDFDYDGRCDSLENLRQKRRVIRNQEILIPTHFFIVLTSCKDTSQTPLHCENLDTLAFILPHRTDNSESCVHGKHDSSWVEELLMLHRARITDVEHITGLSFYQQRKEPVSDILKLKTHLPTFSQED

Key:
Human ENPP1 [1] = molecular target: T1, Human ENPP1 (Homo sapiens (Human), UniProt P22413)
Human ENPP1 [2] = molecular target: T1, Human ENPP1; remark: listed apart in the source
[3] = molecular target: ENPP1 expressed by MCF-7 cells (Homo sapiens (Human), UniProt P22413); experiment: cell-based

CC(C)c1cn(Cc2ccc(S(N)(=O)=O)c(-c3ccncc3)c2)c2nc(C3CC3)nn2c1=O [Compound 5, 4-((2-cyclopropyl-6-isopropyl-7-oxo-[1,2,4]triazolo[1,5-a]pyrimidin-4(7H)-yl)methyl)-2-(pyridin-4-yl)benzenesulfonamide] gave a Kd (Human ENPP1 [1]) of 0.631 nM, an EC50 (Human ENPP1 [2]) of 1 nM and an EC50 [3] of 63.1 nM.

CC(C)c1cn(Cc2ccc(S(N)(=O)=O)cc2O)c2nc(C3CC3)nn2c1=O [Compound 24, 4-((2-cyclopropyl-6-isopropyl-7-oxo-[1,2,4]triazolo[1,5-a]pyrimidin-4(7H)-yl)methyl)-3-hydroxybenzenesulfonamide] gave a Kd (Human ENPP1 [1]) of 3.16 nM and an EC50 (Human ENPP1 [2]) of 3.98 nM.
